Results from patent US20250134865A1, “METHODS OF WEIGHT LOSS IN A SUBJECT WITH ELEVATED HBA1C” (published 2025).
Values joined by “and” are separate entries in the source; they are usually repeats but may differ in a detail not shown here. Equal entries are not always repeated.

How the values were obtained:
[1] = system: subjects with nonalcoholic fatty liver disease (NAFLD), elevated liver fat (>8%), and elevated body mass index (BMI); test: Phase 2a trial: liver fat content by MRI-PDFF; conditions: for Responder (>30% liver fat reduction by MRI-PDFF), share of subjects / MRI-Proton Density Fat Fraction, Difference in LS Mean, Compound 1-Placebo / Relative reduction in liver fat: Day 61; for Relative reduction in liver fat: overall; for placebo-corrected mean percent change from baseline in liver fat (MRI-PDFF): range across doses
[2] = system: subjects with nonalcoholic fatty liver disease (NAFLD), elevated liver fat (>8%), and elevated body mass index (BMI); test: Phase 2a trial: FAST score (Fibroscan and AST)
[3] = Phase 2a trial: InBody lean body mass / skeletal muscle mass; conditions: 450 mg; Day 61; compared with placebo
[4] = 150 mg, HbA1c 5.7% to 9.0% subgroup
[5] = 150 mg, HbA1c 5.7%-9.0% subgroup
[6] = 300 mg, HbA1c 5.7% to 9.0% subgroup
[7] = 300 mg, HbA1c 5.7%-9.0% subgroup
[8] = 450 mg, HbA1c 5.7% to 9.0% subgroup
[9] = 450 mg, HbA1c 5.7%-9.0% subgroup

## Cn1c(COc2ccc([N+](=O)[O-])cc2[N+](=O)[O-])cnc1[N+](=O)[O-]
[1]; [4]
  MRI-Proton Density Fat Fraction at Day 61, Median: 19.0%
  MRI-Proton Density Fat Fraction, Day 61-Baseline, LS Mean: −5.35%
  MRI-Proton Density Fat Fraction, Day 61-Baseline, Mean: −6.6%
  MRI-Proton Density Fat Fraction, Day 61-Baseline, Median: −8.0%
[1]; [5]
  MRI-PDFF percent change from baseline to Day 61, Median: −32.985%
  Non-responder (MRI-PDFF), share of subjects: 3 (42.9%)
  Responder (>30% liver fat reduction by MRI-PDFF), share of subjects: 43%
[1]; 150 mg, HbA1c 5.7%-9.0% subgroup, listed as CM1
  Responder (>30% liver fat reduction by MRI-PDFF), share of subjects: 3 (42.9%)
[1]; 150 mg, all subjects
  MRI-Proton Density Fat Fraction at Day 61, Mean: 13.7%
  MRI-Proton Density Fat Fraction at Day 61, Median: 12.7%
  MRI-Proton Density Fat Fraction, Day 61-Baseline, LS Mean: −4.64%
  MRI-Proton Density Fat Fraction, Day 61-Baseline, Mean: −5.0%
  MRI-Proton Density Fat Fraction, Day 61-Baseline, Median: −5.8%
[1]; 300 mg once daily oral, HbA1c 5.7%-9.0% subgroup
  MRI-PDFF percent change from baseline to Day 61, Mean: −39.186%
[1]; [6]
  MRI-Proton Density Fat Fraction, Difference in LS Mean, Compound 1-Placebo: −6.89%
  MRI-Proton Density Fat Fraction at Day 61, Mean: 14.0%
  MRI-Proton Density Fat Fraction at Day 61, Median: 16.1%
  MRI-Proton Density Fat Fraction, Day 61-Baseline, LS Mean: −6.41%
  MRI-Proton Density Fat Fraction, Day 61-Baseline, Mean: −7.1%
  MRI-Proton Density Fat Fraction, Day 61-Baseline, Median: −9.0%
[1]; 300 mg, all subjects
  MRI-Proton Density Fat Fraction, Difference in LS Mean, Compound 1-Placebo: −6.77%
  MRI-Proton Density Fat Fraction at Day 61, Mean: 11.2%
  MRI-Proton Density Fat Fraction at Day 61, Median: 10.4%
  MRI-Proton Density Fat Fraction, Day 61-Baseline, LS Mean: −6.21%
  MRI-Proton Density Fat Fraction, Day 61-Baseline, Mean: −6.2%
  MRI-Proton Density Fat Fraction, Day 61-Baseline, Median: −5.9%
[1]; 300 mg, FAS population
  Non-responder (MRI-PDFF), share of subjects: 5 (23.8%)
  Responder (>30% liver fat reduction by MRI-PDFF), share of subjects: 71%
[1]; 300 mg, FAS population, listed as CM1
  Responder (>30% liver fat reduction by MRI-PDFF), share of subjects: 15 (71.4%)
[1]; [7]
  MRI-PDFF change from baseline at Day 61, Difference of LS Mean and Placebo: −6.89
  MRI-PDFF mean change from baseline at Day 61, LS Mean (ANCOVA): −6.41
  MRI-PDFF percent change from baseline to Day 61, Median: −39.730%
  Non-responder (MRI-PDFF), share of subjects: 1 (12.5%)
  Responder (>30% liver fat reduction by MRI-PDFF), share of subjects: 75%
[1]; 300 mg, HbA1c 5.7%-9.0% subgroup, listed as CM1
  Responder (>30% liver fat reduction by MRI-PDFF), share of subjects: 6 (75.0%)
[1]; 450 mg once daily oral, HbA1c 5.7%-9.0% subgroup
  MRI-PDFF percent change from baseline to Day 61, Mean: −43.734%
[1]; [8]
  MRI-Proton Density Fat Fraction, Difference in LS Mean, Compound 1-Placebo: −7.45%
  MRI-Proton Density Fat Fraction at Day 61, Mean: 10.7%
  MRI-Proton Density Fat Fraction at Day 61, Median: 8.8%
  MRI-Proton Density Fat Fraction, Day 61-Baseline, LS Mean: −6.97%
  MRI-Proton Density Fat Fraction, Day 61-Baseline, Mean: −6.5%
  MRI-Proton Density Fat Fraction, Day 61-Baseline, Median: −4.7%
[1]; 450 mg, all subjects
  MRI-Proton Density Fat Fraction, Difference in LS Mean, Compound 1-Placebo: −6.60%
  MRI-Proton Density Fat Fraction at Day 61, Mean: 11.2%
  MRI-Proton Density Fat Fraction at Day 61, Median: 8.8%
  MRI-Proton Density Fat Fraction, Day 61-Baseline, LS Mean: −6.03%
  MRI-Proton Density Fat Fraction, Day 61-Baseline, Mean: −6.0%
  MRI-Proton Density Fat Fraction, Day 61-Baseline, Median: −5.1%
[1]; 450 mg, FAS population
  Non-responder (MRI-PDFF), share of subjects: 5 (27.8%)
  Responder (>30% liver fat reduction by MRI-PDFF), share of subjects: 72%
[1]; 450 mg, FAS population, listed as CM1
  Responder (>30% liver fat reduction by MRI-PDFF), share of subjects: 13 (72.2%)
[1]; [9]
  MRI-PDFF change from baseline at Day 61, Difference of LS Mean and Placebo: −7.45
  MRI-PDFF mean change from baseline at Day 61, LS Mean (ANCOVA): −6.97
  MRI-PDFF percent change from baseline to Day 61, Median: −43.100%
  Non-responder (MRI-PDFF), share of subjects: 1 (14.3%)
  Responder (>30% liver fat reduction by MRI-PDFF), share of subjects: 86%
[1]; 450 mg, HbA1c 5.7%-9.0% subgroup, listed as CM1
  Responder (>30% liver fat reduction by MRI-PDFF), share of subjects: 6 (85.7%)
[1]; All CM1 doses, FAS population
  Non-responder (MRI-PDFF), share of subjects: 20 (33.9%)
[1]; All CM1 doses, HbA1c 5.7%-9.0% subgroup
  Non-responder (MRI-PDFF), share of subjects: 5 (22.74%)
[1]; high dose (450 mg)
  Relative reduction in liver fat: 40%
[1]; low dose (150 mg)
  Relative reduction in liver fat: 33%
[1]; mid dose (300 mg)
  Relative reduction in liver fat: 43%
[1]; subgroup with elevated HbA1c
  placebo-corrected mean percent change from baseline in liver fat (MRI-PDFF): −42% to −50
[1]; subjects overall
  placebo-corrected mean percent change from baseline in liver fat (MRI-PDFF): −33% to 43 and −33% to −43
[2]; 150 mg, HbA1c subgroup
  FAST, LS mean change at day 61: −0.55
[2]; 150 mg, overall population
  FAST, LS mean change at day 61: −0.37
[2]; 300 mg, HbA1c subgroup
  FAST, LS mean change at day 61: −0.69
[2]; 300 mg, overall population
  FAST, LS mean change at day 61: −0.319
[2]; 450 mg, HbA1c subgroup
  FAST, LS mean change at day 61: 0.11
[2]; 450 mg, overall population
  FAST, LS mean change at day 61: 0.055
[3]
  skeletal muscle mass (and lean body mass and dry lean mass): remained unchanged
